Apparent affinities of Ab-14 variants for a coronavirus HR2 peptide

Antigen: PDVDLGDISGINAS, a 14-residue peptide of the SARS-CoV-2 spike HR2 region.

The variants keep the light chain, the linker and the frameworks of Ab-14 (scFv order VH, a 15-residue (Gly4Ser)3 linker, VL).
VH: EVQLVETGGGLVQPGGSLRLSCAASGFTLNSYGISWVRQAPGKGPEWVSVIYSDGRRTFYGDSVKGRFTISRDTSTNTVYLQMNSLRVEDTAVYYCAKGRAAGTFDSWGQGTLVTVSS
VL: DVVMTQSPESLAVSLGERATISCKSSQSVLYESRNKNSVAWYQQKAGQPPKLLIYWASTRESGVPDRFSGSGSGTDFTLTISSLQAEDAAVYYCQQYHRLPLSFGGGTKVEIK

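The variants were designed computationally from a first round of random CDR variants and then made and measured. Their group label is 14H_GP_Gen (GP: Gaussian process model; Gen: genetic algorithm; a sequence that several methods proposed may carry one label only). Affinity was read by AlphaSeq, a pooled yeast mating assay with surface-displayed partners. The frequency of each diploid, read from paired DNA barcodes, reflects how well the two displayed proteins bind. Read counts were normalised to the haploid input and turned into Kd by a linear fit to BCL2-family pairs of known affinity, for each replicate. There are six technical replicates.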

Positions count from residue 1 of the parent VH; G26K puts K in place of G.
Values are log10 of the apparent Kd in nM; lower means stronger binding.
Replicates are averaged; those with no signal do not enter the mean.
A pair that was not seen in that replicate is written "n.d."; this usually means weak binding, but a binder can also be missed.
The authors' rule: three or more of the six replicates give a measured affinity, fewer mean a poor binder.
Values of this round are not directly comparable with the first-round values of the same sequences.
Empty control strains, which show no peptide, gave a signal in 1% of pairings with all heavy chain designs; the median was 2.08 and 95% of these signals were weaker than 0.84. No background was subtracted. The control count says in how many pairings with the empty strains this scFv gave a signal, with their mean in brackets.
Of ten entries with the parent sequence, four were seen in most replicates (averages 0.34 to 2.37), three in one and three in none, so single entries are noisy.

| changes | log10 Kd (nM) by replicate | mean, log10 nM | empty controls |
|---|---|---|---|
| G26K/T28N/G61I/R100N | n.d. n.d. n.d. n.d. 1.48 n.d. | 1.48 | 0/18 |
| G26K/T28N/G61A/R100Q/A101T | n.d. -0.30 n.d. n.d. n.d. n.d. | -0.30 | 0/18 |
| T28D/F59V/A101N | 0.79 -0.10 -0.29 -0.34 -0.21 -0.06 | -0.03 | 0/18 |
| T28D/R56K/F59A | -0.01 -0.14 -0.06 -0.25 -0.04 0.19 | -0.05 | 0/18 |
| T28D/R100N/A101Q | 0.37 0.43 0.07 0.67 0.16 0.38 | 0.35 | 0/18 |
| T28E/S53A/S107L | -0.63 -0.59 -1.16 -1.16 -0.37 -0.32 | -0.71 | 0/18 |
| T28E/S53A/R100K/S107M | 0.00 -0.25 -0.53 -0.37 -0.09 -0.29 | -0.26 | 1/18 (1.80) |
| T28D/G61Q/R100W/A101T | 0.47 0.27 0.33 -0.24 -0.11 0.35 | 0.18 | 1/18 (2.25) |
| T28D/G61V/R100K/A101I | 0.68 n.d. n.d. n.d. n.d. n.d. | 0.68 | 0/18 |
| T28D/S31M/R56K/A101T | 0.33 -0.01 0.14 0.00 0.30 0.25 | 0.17 | 0/18 |
| T28E/R100K/A101T/S107W | 1.60 0.73 2.68 1.47 n.d. 1.45 | 1.59 | 2/18 (1.85) |
| T28N/R100H/A101E | n.d. n.d. n.d. n.d. n.d. n.d. | n.d. | 0/18 |
| T28D/S63Q/R100N | 0.77 -0.09 -0.10 0.37 -0.41 0.23 | 0.13 | 0/18 |
| T28S/S31E/G61S/S63Q/A101T | -0.23 -0.22 -0.22 -0.75 -0.29 -0.19 | -0.32 | 0/18 |
| R56Q/G61I/R100K | n.d. -0.41 1.13 -0.56 0.01 -0.43 | -0.05 | 0/18 |
| T28E/S63N/R100Q/A101T | 0.43 0.52 0.16 0.94 0.49 1.10 | 0.61 | 0/18 |
| G26W/T28E/G61A/A101T | n.d. n.d. n.d. n.d. n.d. n.d. | n.d. | 0/18 |
| T28E/G61K/R100K | 0.74 0.01 0.40 1.34 1.25 1.29 | 0.84 | 0/18 |
| G26M/T28D/G61I/R100Q | 0.94 n.d. n.d. n.d. n.d. n.d. | 0.94 | 0/18 |
| T28E/R100N/S107K | 1.41 1.59 1.48 1.61 n.d. 0.89 | 1.39 | 0/18 |
| T28D/F59A/G61K | 0.07 1.46 -0.13 1.26 0.61 0.71 | 0.66 | 0/18 |
| T28D/G61I/S63Q/R100Q/A101T | n.d. n.d. n.d. n.d. n.d. n.d. | n.d. | 0/18 |
| T28E/G61Q/A101T/S107T | 0.48 -0.06 0.72 0.40 0.43 1.12 | 0.52 | 0/18 |
| T28S/F59A/S63H | 0.22 0.17 0.42 0.76 0.03 0.03 | 0.27 | 1/18 (0.79) |
| T28D/G61S/R100K/A101Q | 0.36 -0.37 -0.12 0.19 -0.11 0.29 | 0.04 | 0/18 |
| T28D/G61C/S63Q/A101T | n.d. n.d. n.d. n.d. n.d. n.d. | n.d. | 0/18 |
| T28D/S31T/R56K/A101T | -0.07 -0.12 -0.34 -0.33 -0.37 0.02 | -0.20 | 0/18 |
| T28D/G61A/R100N/S107A | 1.00 0.22 0.58 0.38 0.13 0.27 | 0.43 | 0/18 |
| T28D/G61C/S63R/A101T | n.d. n.d. n.d. n.d. -0.03 n.d. | -0.03 | 0/18 |
| T28D/G61A/A101E/S107N | 0.86 0.36 1.03 0.45 0.66 0.72 | 0.68 | 1/18 (3.01) |
| T28D/S63P/A101Q | 1.13 0.27 0.71 0.45 0.49 0.41 | 0.58 | 0/18 |
| T28E/S53A/R100Q/S107A | 0.82 0.53 0.59 0.47 0.29 0.73 | 0.57 | 0/18 |
| G26P/T28D/F59A/A101Q | 0.92 0.65 0.50 0.47 0.53 0.79 | 0.64 | 1/18 (2.70) |
| T28D/G61I/R100K/S107K | 0.43 0.78 0.84 0.39 0.39 0.61 | 0.57 | 0/18 |
| T28D/F59A/S63M/A101T | 0.59 -0.18 -0.22 -0.77 -0.10 0.02 | -0.11 | 0/18 |
| T28D/S31M/S63Q/A101T | n.d. n.d. n.d. n.d. n.d. n.d. | n.d. | 0/18 |
| T28E/R100W/A101Q | 1.27 0.69 1.01 n.d. 1.76 0.54 | 1.06 | 0/18 |
| T28D/R56K/G61D/A101T | -0.25 -0.07 -0.32 -0.55 -0.35 -0.45 | -0.33 | 0/18 |

The closing 4 entries, repeated:

| changes | log10 Kd (nM) by replicate | mean, log10 nM | empty controls |
|---|---|---|---|
| T28D/F59A/S63M/A101T | 0.59 -0.18 -0.22 -0.77 -0.10 0.02 | -0.11 | 0/18 |
| T28D/S31M/S63Q/A101T | n.d. n.d. n.d. n.d. n.d. n.d. | n.d. | 0/18 |
| T28E/R100W/A101Q | 1.27 0.69 1.01 n.d. 1.76 0.54 | 1.06 | 0/18 |
| T28D/R56K/G61D/A101T | -0.25 -0.07 -0.32 -0.55 -0.35 -0.45 | -0.33 | 0/18 |

Data: MIT Lincoln Laboratory AlphaSeq set, Li et al. 2023, doi:10.1038/s41467-023-39022-2, as distributed in FLAb.